The record followed here is PMC4104544 (Cell, 2014).

The chains behind the UniProt entries cited, without tags or fusion partners. Residues count along the entry.
UniProt P08238, 2-724: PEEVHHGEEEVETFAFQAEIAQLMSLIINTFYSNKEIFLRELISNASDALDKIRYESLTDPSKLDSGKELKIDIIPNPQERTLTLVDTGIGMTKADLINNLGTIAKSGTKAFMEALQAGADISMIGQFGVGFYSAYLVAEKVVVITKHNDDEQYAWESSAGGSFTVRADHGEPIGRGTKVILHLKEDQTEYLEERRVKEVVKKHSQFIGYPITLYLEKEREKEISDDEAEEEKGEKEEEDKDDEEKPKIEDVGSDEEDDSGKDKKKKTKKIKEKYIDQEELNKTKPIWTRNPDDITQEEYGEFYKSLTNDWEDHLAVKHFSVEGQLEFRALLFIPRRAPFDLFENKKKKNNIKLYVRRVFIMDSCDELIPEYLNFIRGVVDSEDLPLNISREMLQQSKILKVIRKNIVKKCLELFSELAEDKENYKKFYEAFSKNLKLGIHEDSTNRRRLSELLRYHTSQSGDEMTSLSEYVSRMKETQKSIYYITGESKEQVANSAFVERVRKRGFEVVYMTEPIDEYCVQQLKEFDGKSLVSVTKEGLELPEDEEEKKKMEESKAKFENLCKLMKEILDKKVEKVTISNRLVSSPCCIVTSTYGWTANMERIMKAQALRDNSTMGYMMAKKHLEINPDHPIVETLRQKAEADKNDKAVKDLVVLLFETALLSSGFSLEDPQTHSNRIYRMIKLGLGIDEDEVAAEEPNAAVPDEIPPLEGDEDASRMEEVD

This experiment has as its target Hsp90β (Homo sapiens, UniProt P08238).

Consider `CC(C)c1cc(-c2n[nH]c(=O)n2-c2ccc3c(ccn3C)c2)c(O)cc1O` [ganetespib], for which the “LUMIER in 293T cells: loss of client interactions after 1 h at 1 μM” value is reported as “Ganetespib treatment had a strong effect on most Hsp90/client interactions”.
